Target: human GPR17 short isoform (Homo sapiens, UniProt Q13304)
Test: GPR17 cAMP assay (hGPR17 cAMP, TR-FRET, antagonist mode)
Format: cell-based
Settings: read-out: hGPR17 cAMP IC50; CHO-K1 cells stably expressing human GPR17 short isoform; EC80 of agonist MDL29,951; forskolin 15 μM; 30 min at room temperature

Amino acid sequences for entries named in this document (tags omitted). Residues count along the entry.
UniProt Q13304, 29-367: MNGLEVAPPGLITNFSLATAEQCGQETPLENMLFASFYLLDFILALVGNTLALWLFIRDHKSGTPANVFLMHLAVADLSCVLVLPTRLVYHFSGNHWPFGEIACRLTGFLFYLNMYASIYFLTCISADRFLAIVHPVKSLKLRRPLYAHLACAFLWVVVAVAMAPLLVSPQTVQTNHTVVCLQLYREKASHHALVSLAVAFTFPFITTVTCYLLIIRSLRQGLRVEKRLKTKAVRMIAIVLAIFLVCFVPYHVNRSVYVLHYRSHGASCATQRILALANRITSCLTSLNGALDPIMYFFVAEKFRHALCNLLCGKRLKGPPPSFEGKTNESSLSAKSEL

For `COc1nc(OCC(F)F)c(F)cc1NS(=O)(=O)c1cnc2cc(C3(O)COC3)ccn12`, the IC50 was 101 nM.
